Measured values published in article PMC6154319, “Intestinal Transport Characteristics and Metabolism of C-Glucosyl Dihydrochalcone, Aspalathin” (Molecules : A Journal of Synthetic Chemistry and Natural …, 2017).

test: Acute mouse study, metabolite identification in blood and urine by LC-MS/MS; format: in vivo; details: oral 50 mg/kg aspalathin, urine over 8 h, tentative identification by LC-MS/MS
Procedure: An acute mouse study was performed under ethical approval from the Ethics Committee for Research on Animals (ECRA) of the South African Medical Research Council (Ref:07/13). Three 8-week old male C57.BKS mice, obtained from the Primate Unit of the South African Medical Research Council (Tygerberg, South Africa), were housed individually in polycarbonate cages with wired lids and kept in a controlled environment of 23–24 °C, 50% humidity, and a 12 h light/dark cycle. Prior to the study, urine was collected from the fasting mice overnight in a metabolic cage. Baseline fasted blood was collected via tail snip into a heparin tube, snap frozen in liquid nitrogen, and stored at −80 °C. Each mouse received a single dose of synthetic aspalathin (50 mg/kg body weight) dissolved in phosphate-buffered saline (PBS) (5 mg/mL) via orogastric gavage. Blood samples were collected and handled as described for fasting at time 0 (pre-gavage), and 1, 2, 4, 6, and 8 h post-gavage. All the samples were collected into the same heparin tube and kept on ice during the experiment. Urine was collected over the 8-h post-gavage monitoring period and the samples were stored at −80 °C until analysis.
The frozen whole blood samples, as well as the samples incubated with microsomes and controls, were thawed, extracted by protein precipitation using 0.1% formic acid (FA) in acetonitrile, centrifuged and filtered through 0.22 µm polyvinylidene difluoride (PVDF) filters (Merck Millipore, Frankfurter Straße, Darmstadt, Germany). Frozen whole urine samples were thawed and diluted 5 times in 0.1% aqueous FA. Samples were analysed by LC-MS/MS on an Agilent 1200 Rapid Resolution HPLC system (600 bar, Agilent Technologies) coupled to a 4000 QTRAP® (AB Sciex, Framingham, MA, USA) equipped with a Turbo V™ […]. Filtered samples (10 μL), stored on a sample tray maintained at 8 °C, were injected on a Gemini C6-Phenyl column (150 × 2.0 mm, 3 µm particles) (Phenomenex, Santa Clara, CA, USA) at 40 °C. Metabolites were separated using gradient separation at 0.4 mL/min with 0.1% aqueous FA (A) and 0.1% FA in acetonitrile (B): 5% B, 0–1 min; 5%–50% B, 1–3 min; 50% B, 3–6 min; 50%–100% B, 6–7 min; 100% B, 7–10 min (equilibration at initial conditions for 5 min).
All mass scans were performed using electrospray ionisation in negative mode, with the following operating parameters: curtain gas, 30 psi; nebuliser gas, 50 psi; turbo gas, 60 psi; source temperature, 400 °C; ion spray voltage, −4.5 kV; declustering potential, −75 V; collision activated dissociation gas setting, high; scan speed, 4000 Da/s. […] Collision energy and spread were set at −35 V and 25 V, respectively. […]

Substance | metabolite present in mouse urine (relative concentrations)
Me-O-Aspalathin-O-SO3H [SMe1] | also present
Aspalathin-O-Gluc [Glu1] | mainly
Aspalathin-O-SO3H [S1] | mainly
Me-O-Aspalathin-O-Gluc [MeGlu1] | also present
